These are literature values, as cited in US10941121B2 (AZIENDA OSPEDALIERA UNIVERSITARIA SENESE, priority 2015, dated 2021).

Protein sequences, listed by entry. Tags and fused reporters are not part of them.
UniProt O00571, whole entry: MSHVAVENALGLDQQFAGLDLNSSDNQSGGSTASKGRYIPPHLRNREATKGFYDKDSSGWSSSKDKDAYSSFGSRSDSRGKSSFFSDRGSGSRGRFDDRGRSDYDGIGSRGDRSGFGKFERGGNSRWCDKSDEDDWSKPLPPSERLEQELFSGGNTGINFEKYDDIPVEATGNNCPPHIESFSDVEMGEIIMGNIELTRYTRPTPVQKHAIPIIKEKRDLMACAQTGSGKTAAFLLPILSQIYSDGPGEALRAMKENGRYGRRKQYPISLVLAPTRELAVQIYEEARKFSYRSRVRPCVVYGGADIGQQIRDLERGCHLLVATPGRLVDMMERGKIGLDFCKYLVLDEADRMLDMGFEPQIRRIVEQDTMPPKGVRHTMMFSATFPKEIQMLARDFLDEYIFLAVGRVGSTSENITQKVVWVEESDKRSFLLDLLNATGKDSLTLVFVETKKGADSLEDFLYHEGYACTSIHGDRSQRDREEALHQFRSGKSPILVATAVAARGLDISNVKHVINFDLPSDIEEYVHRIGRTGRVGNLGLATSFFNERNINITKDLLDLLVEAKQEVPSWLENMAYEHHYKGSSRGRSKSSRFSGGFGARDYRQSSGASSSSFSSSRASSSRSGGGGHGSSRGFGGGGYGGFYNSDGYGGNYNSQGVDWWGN

As a reminder, the Ki is the equilibrium dissociation constant of an inhibitor or competing ligand from its target.

In this series the target is DDX3 (Homo sapiens, UniProt O00571). The conditions noted are these: read-out: Ki on DDX3; literature values; cited from earlier work.

As for `O=C1/C(=C/c2c(NCCCO)nc3ccccn3c2=O)SC(=S)N1CCc1ccccc1`, the Ki is 200 nM.
